Laboratory results: publication doi:10.1101/2024.03.12.584565 (bioRxiv, 2024)

Target: T1, Flag-tagged Pds5b-Ser1161,1166Ala (2A), untreated or exposed to Cdk1/2-cyclin A2 (human, UniProt Q9NTI5 1-1447, Ser1161,1166Ala | Ser1161,1166Ala)
T1 sequence: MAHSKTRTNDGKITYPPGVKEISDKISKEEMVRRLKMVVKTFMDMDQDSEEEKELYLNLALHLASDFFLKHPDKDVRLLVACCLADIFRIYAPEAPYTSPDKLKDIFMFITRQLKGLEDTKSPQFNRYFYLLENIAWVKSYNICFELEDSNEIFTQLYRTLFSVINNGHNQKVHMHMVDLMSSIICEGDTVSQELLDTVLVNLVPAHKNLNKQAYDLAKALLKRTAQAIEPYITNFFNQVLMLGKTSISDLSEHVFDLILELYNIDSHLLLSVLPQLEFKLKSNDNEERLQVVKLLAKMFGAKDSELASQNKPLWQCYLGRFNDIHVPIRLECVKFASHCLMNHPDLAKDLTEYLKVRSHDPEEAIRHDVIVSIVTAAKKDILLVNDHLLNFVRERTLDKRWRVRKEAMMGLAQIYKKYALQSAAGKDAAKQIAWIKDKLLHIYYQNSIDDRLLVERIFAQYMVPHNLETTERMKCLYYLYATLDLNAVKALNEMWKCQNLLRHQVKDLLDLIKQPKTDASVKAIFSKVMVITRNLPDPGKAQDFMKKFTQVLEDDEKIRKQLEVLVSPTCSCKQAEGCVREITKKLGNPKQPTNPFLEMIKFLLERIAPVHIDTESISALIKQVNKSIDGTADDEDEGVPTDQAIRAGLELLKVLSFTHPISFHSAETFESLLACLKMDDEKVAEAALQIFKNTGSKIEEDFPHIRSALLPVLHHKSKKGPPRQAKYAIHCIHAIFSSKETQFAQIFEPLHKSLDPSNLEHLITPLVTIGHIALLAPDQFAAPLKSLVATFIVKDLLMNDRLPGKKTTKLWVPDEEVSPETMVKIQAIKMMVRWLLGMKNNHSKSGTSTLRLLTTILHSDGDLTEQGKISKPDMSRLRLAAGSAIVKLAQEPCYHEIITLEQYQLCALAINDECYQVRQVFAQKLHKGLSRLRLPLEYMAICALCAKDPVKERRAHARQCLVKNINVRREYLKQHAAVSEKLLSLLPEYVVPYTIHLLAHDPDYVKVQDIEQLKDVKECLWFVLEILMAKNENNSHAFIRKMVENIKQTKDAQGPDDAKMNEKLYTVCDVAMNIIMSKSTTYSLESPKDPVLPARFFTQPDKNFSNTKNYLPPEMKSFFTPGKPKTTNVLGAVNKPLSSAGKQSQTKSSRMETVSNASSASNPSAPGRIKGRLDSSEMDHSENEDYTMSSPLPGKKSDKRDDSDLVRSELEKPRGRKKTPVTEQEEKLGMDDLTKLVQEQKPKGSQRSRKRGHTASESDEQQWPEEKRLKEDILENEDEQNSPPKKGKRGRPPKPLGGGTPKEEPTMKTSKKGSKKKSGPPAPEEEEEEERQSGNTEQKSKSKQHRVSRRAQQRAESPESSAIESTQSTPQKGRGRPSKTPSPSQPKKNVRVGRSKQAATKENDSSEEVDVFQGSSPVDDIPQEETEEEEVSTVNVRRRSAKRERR
Test: pull-down

B1: His6-SUMO3-sororin (natural protein)
chain: MSGRRTRSGGAAQRSGPRAPSPTKPLRRSQRKSGSELPSILPEIWPKTPSAAAVRKPIVLKRIVAHAVEVPAVQSPRRSPRISFFLEKENEPPGRELTKEDLFKTHSVPATPTSTPVPNPEAESSSKEGELDARDLEMSKKVRRSYSRLETLGSASTSTPGRRSCFGFEGLLGAEDLSGVSPVVCSKLTEVPRVCAKPWAPDMTLPGISPPPEKQKRKKKKMPEILKTELDEWAAAMNAEFEAAEQFDLLVE
Q: Does B1 bind?
A: Result: binds
